Target: endogenous polycystin-1 (PC1), human (human (endogenous in RCTE), UniProt P98161 24-4303)
Assay: co-IP

Amino acid sequences for entries named in this document (tags omitted). Residues count along the entry.
UniProt P98161, 24-4303: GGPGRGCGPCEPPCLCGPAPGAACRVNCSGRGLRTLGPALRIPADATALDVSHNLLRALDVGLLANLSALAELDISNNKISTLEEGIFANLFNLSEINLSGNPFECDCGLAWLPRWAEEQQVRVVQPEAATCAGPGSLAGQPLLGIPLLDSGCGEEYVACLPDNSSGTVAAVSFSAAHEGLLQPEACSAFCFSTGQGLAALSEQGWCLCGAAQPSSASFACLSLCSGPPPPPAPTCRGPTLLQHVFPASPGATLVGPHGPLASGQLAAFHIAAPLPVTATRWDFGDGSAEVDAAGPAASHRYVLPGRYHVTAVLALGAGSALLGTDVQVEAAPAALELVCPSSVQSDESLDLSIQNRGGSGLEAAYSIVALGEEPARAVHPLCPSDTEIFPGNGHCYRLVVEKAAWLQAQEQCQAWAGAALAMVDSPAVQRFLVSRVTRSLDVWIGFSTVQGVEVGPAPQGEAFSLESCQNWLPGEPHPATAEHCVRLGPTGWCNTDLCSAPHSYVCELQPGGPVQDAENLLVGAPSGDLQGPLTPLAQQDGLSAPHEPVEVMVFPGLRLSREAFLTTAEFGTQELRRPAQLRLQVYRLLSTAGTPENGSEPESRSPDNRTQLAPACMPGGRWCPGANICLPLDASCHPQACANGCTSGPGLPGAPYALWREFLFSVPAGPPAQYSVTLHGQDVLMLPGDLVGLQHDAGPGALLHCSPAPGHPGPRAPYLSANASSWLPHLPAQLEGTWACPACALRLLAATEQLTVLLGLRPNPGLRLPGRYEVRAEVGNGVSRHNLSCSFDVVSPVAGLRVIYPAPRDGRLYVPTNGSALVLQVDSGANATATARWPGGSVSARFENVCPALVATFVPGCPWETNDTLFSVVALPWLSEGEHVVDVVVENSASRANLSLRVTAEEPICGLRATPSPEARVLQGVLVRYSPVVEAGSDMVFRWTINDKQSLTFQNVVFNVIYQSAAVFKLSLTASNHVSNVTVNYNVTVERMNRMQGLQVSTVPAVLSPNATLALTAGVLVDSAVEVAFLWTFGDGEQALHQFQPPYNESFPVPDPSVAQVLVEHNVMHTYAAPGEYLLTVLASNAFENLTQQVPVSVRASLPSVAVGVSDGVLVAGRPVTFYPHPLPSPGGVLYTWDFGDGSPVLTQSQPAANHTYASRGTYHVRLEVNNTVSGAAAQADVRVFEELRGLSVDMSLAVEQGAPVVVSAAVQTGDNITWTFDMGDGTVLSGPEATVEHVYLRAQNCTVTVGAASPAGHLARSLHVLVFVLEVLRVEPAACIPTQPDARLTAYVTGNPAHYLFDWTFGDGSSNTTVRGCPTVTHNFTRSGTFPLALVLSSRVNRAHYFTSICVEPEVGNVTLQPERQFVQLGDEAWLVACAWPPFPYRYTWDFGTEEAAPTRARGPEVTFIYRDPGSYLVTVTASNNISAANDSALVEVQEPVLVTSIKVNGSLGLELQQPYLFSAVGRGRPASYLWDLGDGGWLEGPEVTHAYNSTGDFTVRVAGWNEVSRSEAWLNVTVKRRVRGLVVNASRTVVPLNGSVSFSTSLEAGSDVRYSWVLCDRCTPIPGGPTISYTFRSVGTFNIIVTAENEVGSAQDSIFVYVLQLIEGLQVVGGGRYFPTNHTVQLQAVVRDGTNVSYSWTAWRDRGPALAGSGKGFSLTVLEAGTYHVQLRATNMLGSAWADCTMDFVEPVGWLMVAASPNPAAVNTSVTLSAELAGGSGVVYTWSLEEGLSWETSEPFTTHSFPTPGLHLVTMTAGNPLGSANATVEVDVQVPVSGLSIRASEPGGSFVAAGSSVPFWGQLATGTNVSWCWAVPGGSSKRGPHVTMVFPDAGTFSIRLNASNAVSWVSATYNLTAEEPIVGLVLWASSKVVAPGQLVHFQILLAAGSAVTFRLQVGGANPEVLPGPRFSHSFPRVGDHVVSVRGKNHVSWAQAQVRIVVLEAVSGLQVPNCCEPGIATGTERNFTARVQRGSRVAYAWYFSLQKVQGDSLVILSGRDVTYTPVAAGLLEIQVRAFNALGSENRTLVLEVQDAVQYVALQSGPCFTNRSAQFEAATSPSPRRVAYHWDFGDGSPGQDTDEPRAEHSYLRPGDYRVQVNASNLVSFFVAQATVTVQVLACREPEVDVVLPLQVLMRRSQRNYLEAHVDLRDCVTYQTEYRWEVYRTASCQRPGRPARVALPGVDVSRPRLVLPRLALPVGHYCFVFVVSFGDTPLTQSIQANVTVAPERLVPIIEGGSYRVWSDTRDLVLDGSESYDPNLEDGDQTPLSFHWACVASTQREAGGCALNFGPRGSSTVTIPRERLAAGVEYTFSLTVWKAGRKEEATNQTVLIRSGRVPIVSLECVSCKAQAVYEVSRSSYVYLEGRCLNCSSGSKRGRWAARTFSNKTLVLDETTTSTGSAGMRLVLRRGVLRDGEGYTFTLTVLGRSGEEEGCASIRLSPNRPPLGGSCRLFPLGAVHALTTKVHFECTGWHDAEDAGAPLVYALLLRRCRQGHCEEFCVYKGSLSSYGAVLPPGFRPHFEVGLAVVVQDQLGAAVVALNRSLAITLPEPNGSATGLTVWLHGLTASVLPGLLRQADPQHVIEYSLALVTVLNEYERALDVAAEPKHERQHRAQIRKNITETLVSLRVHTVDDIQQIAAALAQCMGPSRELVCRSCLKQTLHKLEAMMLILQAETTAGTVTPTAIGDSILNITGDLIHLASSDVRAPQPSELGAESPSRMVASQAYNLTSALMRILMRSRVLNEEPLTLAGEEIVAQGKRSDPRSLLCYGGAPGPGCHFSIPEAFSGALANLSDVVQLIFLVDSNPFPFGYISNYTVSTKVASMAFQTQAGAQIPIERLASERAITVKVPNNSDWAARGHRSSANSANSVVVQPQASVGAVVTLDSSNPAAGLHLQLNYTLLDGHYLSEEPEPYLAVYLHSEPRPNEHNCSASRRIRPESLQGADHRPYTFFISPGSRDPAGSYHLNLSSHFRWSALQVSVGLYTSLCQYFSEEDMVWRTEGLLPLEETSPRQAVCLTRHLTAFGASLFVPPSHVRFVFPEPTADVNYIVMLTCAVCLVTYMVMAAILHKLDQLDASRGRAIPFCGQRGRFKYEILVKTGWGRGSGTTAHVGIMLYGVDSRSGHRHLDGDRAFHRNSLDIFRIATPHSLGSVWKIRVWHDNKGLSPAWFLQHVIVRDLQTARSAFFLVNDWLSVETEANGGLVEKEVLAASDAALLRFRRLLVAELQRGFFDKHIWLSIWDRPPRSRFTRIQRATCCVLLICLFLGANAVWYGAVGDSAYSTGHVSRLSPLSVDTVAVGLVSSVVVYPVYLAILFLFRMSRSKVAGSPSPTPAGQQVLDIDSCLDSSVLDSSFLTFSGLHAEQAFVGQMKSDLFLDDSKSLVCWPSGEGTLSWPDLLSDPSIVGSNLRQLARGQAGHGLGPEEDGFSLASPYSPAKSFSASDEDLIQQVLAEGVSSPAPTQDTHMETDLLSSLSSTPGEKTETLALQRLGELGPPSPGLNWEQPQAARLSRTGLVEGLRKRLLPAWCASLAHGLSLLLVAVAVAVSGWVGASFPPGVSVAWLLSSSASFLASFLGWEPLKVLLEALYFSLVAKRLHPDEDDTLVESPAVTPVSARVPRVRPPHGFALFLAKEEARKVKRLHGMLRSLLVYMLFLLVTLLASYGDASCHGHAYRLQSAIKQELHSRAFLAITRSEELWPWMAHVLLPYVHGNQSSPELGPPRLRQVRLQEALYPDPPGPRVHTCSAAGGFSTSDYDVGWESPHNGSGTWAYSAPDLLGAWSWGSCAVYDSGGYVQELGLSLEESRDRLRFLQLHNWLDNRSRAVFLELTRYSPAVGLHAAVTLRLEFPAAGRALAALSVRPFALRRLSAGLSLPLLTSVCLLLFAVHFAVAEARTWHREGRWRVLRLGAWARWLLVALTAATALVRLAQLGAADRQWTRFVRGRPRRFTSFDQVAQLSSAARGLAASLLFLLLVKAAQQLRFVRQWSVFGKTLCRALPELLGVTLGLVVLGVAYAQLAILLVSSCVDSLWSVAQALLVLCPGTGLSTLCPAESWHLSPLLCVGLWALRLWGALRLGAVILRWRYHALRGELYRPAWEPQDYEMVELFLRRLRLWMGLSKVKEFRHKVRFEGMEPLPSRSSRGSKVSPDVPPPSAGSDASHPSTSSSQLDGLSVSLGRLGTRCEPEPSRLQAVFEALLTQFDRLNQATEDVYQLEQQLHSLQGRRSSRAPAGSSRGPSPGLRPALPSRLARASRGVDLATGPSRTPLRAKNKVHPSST

| fold enrichment of the coprecipitated protein compared with control IgG | Binder |
| --- | --- |
| 5.64 fold | endogenous Arf4, human (natural protein, human (endogenous in RCTE), UniProt P18085 1-180, looked up) MGLTISSLFSRLFGKKQMRILMVGLDAAGKTTILYKLKLGEIVTTIPTIGFNVETVEYKNICFTVWDVGGQDRIRPLWKHYFQNTQGLIFVVDSNDRERIQEVADELQKMLLVDELRDAVLLLFANKQDLPNAMAISEMTDKLGLQSLRNRTWYVQATCATQGTGLYEGLDWLSNELSKR |
| ≥ 5.2 fold | ArfGAP with SH3 domain, ankyrin repeat and PH domain 1 (ASAP1), human, endogenous (natural protein) not shown |

— article PMC3172256 (Molecular Biology of the Cell, 2011)
